The values that follow come from ChEMBL document CHEMBL1157356, “Discovery of pyrrolopyridine-pyridone based inhibitors of Met kinase: synthesis, X-ray crystallographic analysis, and biological activities” (J Med Chem, 2008).

Protein sequences, listed by entry. Tags and fused reporters are not part of them. Lines headed by an entry give the natural chain unless they say otherwise; changes in a name come on top.
UniProt P08581: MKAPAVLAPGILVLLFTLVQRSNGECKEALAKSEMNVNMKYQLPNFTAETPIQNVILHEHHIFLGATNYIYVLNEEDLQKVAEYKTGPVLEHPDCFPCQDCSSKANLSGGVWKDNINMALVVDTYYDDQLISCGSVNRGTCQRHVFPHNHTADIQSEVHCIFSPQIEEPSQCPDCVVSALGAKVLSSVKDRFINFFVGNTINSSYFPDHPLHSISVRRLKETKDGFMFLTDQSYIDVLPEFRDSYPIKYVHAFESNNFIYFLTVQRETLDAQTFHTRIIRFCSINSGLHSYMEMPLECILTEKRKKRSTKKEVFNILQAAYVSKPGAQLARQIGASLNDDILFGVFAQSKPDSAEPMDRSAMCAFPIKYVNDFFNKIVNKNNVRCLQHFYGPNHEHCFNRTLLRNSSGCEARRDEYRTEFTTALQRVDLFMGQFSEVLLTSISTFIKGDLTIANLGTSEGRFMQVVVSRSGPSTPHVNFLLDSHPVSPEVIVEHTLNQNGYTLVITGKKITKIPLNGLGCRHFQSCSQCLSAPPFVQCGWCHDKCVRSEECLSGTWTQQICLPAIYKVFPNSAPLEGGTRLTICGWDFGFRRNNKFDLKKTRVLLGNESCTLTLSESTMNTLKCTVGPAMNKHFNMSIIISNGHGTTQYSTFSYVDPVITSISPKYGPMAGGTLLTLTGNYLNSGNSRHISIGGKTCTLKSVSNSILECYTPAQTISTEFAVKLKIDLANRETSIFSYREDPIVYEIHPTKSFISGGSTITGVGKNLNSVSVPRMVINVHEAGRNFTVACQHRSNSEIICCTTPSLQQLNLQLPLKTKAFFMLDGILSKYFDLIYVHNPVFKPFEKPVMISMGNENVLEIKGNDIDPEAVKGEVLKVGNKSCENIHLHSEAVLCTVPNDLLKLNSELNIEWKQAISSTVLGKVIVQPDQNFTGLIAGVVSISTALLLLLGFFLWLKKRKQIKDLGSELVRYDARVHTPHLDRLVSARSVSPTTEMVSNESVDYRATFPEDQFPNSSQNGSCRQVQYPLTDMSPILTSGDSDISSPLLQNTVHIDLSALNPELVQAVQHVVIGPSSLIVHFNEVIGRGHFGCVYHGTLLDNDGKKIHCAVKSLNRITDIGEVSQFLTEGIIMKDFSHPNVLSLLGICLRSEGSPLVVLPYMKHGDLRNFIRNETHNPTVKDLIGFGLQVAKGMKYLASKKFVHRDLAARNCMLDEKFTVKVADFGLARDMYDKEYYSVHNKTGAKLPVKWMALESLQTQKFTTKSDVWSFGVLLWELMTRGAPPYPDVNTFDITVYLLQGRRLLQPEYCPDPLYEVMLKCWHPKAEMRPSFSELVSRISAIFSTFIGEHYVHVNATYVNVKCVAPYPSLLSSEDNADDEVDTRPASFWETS

For this assay, the target named is Hepatocyte growth factor receptor (Homo sapiens, UniProt P08581). Description: Inhibition of MET.

The term IC50 denotes the concentration that inhibits the measured activity by half. Read a high IC50 as weaker potency in that assay. In turn, `O=C(Nc1ccc(Oc2ccnc3[nH]ccc23)c(F)c1)c1cccn(-c2ccc(F)cc2)c1=O` yielded a concentration for half-maximal inhibition (IC50) of 1.8 nM.
